# Source: article PMC2008813 (British Journal of Cancer, 1973)
# Molecular target: T1, glucocorticoid receptor (Rattus norvegicus, UniProt P06536)
# T1 construct: gene Nr3c1; native receptor in R3230AC tumour cytosol (8-9 S component)
# T1 sequence (P06536 1-795): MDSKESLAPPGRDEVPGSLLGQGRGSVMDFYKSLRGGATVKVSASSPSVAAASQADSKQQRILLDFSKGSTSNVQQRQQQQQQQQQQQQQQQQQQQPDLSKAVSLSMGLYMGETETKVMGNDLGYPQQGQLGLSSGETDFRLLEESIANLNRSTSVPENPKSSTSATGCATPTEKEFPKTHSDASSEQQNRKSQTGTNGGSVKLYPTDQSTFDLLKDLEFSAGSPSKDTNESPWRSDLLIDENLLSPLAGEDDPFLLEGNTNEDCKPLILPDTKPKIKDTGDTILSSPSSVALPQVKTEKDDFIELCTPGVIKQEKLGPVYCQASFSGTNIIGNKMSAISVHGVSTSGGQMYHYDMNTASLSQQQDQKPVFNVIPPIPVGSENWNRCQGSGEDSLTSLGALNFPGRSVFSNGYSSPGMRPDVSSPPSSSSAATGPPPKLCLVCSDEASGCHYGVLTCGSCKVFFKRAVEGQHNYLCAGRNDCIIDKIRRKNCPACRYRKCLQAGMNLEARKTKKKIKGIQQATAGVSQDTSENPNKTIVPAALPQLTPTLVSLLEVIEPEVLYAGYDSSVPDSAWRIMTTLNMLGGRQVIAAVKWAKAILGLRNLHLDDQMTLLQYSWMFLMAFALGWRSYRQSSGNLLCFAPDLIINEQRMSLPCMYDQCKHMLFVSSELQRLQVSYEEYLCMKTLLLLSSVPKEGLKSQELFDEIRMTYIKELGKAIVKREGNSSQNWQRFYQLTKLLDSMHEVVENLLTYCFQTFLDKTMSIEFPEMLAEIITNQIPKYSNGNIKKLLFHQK
# Experiment: competition with [3H]-triamcinolone acetonide, sucrose gradient centrifugation
# Conditions: read-out: % [3H]-triamcinolone acetonide bound at 1 umol/l
smiles,measurement,value
C[C@]12CCC(=O)C=C1CC[C@@H]1[C@@H]2[C@@H](O)C[C@@]2(C)[C@H]1CC[C@]2(O)C(=O)CO [Hydrocortisone],activity at 1 µM,41%
